Chains of the proteins cited; added tags and fusions are not shown.
UniProt P08183, whole entry: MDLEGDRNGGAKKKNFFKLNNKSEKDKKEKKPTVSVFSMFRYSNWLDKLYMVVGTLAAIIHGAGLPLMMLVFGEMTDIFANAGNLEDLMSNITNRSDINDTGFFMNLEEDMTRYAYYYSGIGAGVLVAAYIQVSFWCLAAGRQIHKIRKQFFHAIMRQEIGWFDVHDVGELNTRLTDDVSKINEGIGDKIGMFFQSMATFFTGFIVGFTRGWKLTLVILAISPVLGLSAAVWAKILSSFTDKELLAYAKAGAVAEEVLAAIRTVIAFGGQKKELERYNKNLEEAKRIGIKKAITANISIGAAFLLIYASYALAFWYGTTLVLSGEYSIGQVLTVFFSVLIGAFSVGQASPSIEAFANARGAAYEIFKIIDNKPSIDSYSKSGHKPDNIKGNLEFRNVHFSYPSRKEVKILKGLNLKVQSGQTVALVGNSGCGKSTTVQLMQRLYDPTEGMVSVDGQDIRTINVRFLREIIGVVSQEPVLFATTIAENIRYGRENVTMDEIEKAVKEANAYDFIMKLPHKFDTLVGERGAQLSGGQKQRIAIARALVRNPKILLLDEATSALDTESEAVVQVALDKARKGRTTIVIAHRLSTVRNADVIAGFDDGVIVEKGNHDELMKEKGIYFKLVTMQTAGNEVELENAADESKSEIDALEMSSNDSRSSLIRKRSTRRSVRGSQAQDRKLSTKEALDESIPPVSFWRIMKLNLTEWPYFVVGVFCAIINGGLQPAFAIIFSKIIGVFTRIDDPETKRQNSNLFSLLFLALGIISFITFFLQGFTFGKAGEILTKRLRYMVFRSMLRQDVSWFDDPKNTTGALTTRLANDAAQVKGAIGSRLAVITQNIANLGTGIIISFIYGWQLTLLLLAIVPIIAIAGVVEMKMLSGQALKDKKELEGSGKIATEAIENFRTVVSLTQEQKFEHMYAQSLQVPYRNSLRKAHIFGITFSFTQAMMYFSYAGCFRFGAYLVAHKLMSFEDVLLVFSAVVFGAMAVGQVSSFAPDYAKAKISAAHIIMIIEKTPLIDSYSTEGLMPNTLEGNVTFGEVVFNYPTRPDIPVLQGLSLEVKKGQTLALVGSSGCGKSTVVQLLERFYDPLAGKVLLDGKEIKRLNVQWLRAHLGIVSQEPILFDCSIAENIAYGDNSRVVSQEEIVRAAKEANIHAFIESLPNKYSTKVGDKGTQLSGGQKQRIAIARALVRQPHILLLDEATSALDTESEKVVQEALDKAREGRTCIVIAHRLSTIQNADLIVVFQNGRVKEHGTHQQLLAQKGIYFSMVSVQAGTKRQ

In patent US10472612B2, “Cell culture system” (PRESIDENT AND FELLOWS OF HARVARD COLLEGE, priority 2011, dated 2019):

Legend:
[1] = biological target: permeability glycoprotein (P-gp) in Caco-2 cells (Homo sapiens, UniProt P08183)
[2] = tested on: Caco-2 monolayer; settings: preliminary; 15% elongation, 30 μL/h, Rho123 100 μM
[3] = tested on: Caco-2 monolayer; settings: 5 days, cyclic mechanical strain (10% strain, 0.15 Hz) + 30 μL/hr flow
[4] = tested on: Caco-2 cell monolayer alone or with HMVE cell monolayer

Papp in BL>AP transport versus AP>BL transport (efflux via P-gp) [1] | Papp in the presence of mechanical strain [2] | Substance | increase in paracellular permeability [3] [fold] | effect of mechanical strain on paracellular transport [4]
higher | enhanced | Rhodamine 123 [Rho123] |  | 
 |  | fluorescein isothiocyanate-labeled dextran [FD20] | > 4 | increased
